Measured values: patent US20080287375A1, “Selective Glycosidase Inhibitors, Methods of Making Inhibitors, and Uses Thereof” (SIMON FRASER UNIVERSITY, priority 2005, published 2008)

Molecular target: human placental β-hexosaminidase
Assay: Inhibition of β-hexosaminidase, substrate MU-GlcNAc (5), Dixon plots

Ki (read-out: KI, β-hexosaminidase, human lysosomal β-hexosaminidase): 70 nM
Ki (read-out: β-Hexosaminidase KI, Table 2, substrate 5 at 0.64 mM, pH 4.25, Dixon plots): 70 nM
Structure (SMILES): CC1=N[C@@H]2[C@@H](O)[C@H](O)[C@@H](CO)O[C@@H]2S1 [Compound 9a, 2′-methyl-α-D-glucopyrano-[2,1-d]-Δ2′-thiazoline, reference compound]

Like-named read-outs stand apart in the source and are kept apart here.
